Data on 2 substances can be found in patent US20220062371A1, “LIGAND-DRUG-CONJUGATES AS SUBSTRATES FOR SELECTIVE CLEAVAGE BY THE EXOPEPTIDASE ACTIVITY OF CATHEPSIN B” (DEBIOPHARM RESEARCH & MANUFACTURING S.A., priority 2017, published 2022).

Assay [1] concerns SK-BR-3 (ErbB2-expressing) cells. Kind of assay: Cytotoxic activity, Alamar Blue assay. Format: cell-based. The procedure: (§1) Log phase cultures of cell lines SK-OV-3 (ErbB2-expressing), SK-BR-3 (ErbB2-expressing), BT-474 (ErbB2-expressing) and MDA-MB-231 (ErbB2 negative) were collected and cells plated at seeding densities ranging from 1,500 to 12,000 cells/well in 96-well microtiter plates according to pre-determined conditions.
(§2) Assessment of cellular growth was done using Alamar Blue (available from Thermo Fisher Scientific) dye reduction assay. Alamar Blue was added to cells to constitute 10% culture volume. Cells were incubated for 4 to 6 hours, and dye reduction was measured by fluorescence on an EnSpire plate reader (Perkin Elmer). Background corrected fluorescence measurements were transformed in % scale by considering vehicle value as 100% activity (relative measurements). Next, relative measurements were analyzed using GraphPad Prism software to derive relative IC50. All experiments were done twice with 3 replicates per concentration. Error bars: SEM (n=3). Cytotoxicity of AF and AF-Arg on ErbB2-expressing SK-OV-3 and SK-BR-3 cells after 72 and 120 h of treatment. SK-OV-3 and SK-BR-3 cells were seeded the day before treatment in complete culture medium. After overnight resting, cells were treated with decreasing concentrations of test compounds in complete culture medium (AF: 10 μM-1 pM; AF-Arg: 10 μM-1 pM, log-dilution).
(§3) SK-OV-3, SK-BR-3 and MDA-MB-231 cells were seeded the day before treatment in complete culture medium.
On the technique in general: Alamar Blue is a resazurin reagent that responds to reducing activity.

Assay [2] relates to SK-OV-3 (ErbB2-expressing) cells. The experiment in a line: Cytotoxic activity, Alamar Blue assay. Format: cell-based. The procedure: as §1, §2, §3
In assay [3] the test system is SK-BR-3 (ErbB2-expressing) cells. The experiment in a line: Binding affinity assay of ADC1 (flow cytometry). The settings on record: SK-BR-3 versus ErbB2-negative MDA-MB-231. The protocol: The binding affinity of antibody-drug conjugates according to the present invention was assessed as follows.
For SK-BR-3 cells, the concentration of both compounds ranged from 3 μg/mL to 3×10^−4 μg/mL ( 1/10 dilutions). For MDA-MB-231 cells, only the 3 μg/mL concentration was used for both compounds. Next, cells were incubated with a secondary goat anti-human antibody conjugated with Alexa 488 (BioLegend) and a live/dead stain prior analysis on a BD LSRII instrument. Error bars: SD (n=2). Raw data were analyzed in FlowJo (FlowJo).

Assay [4] deals with MDA-MB-231 (ErbB2 negative) cells. The experiment in a line: Cytotoxic activity, Alamar Blue assay. The settings on record: read-out: Relative IC50 at 96 h (day 4). Format: cell-based. The procedure:
as §1, §2, §3
BT-474 and MDA-MB-231 cells were seeded the day before treatment in complete culture medium.

In assay [5] the test system is BT-474 (ErbB2-expressing) cells. Kind of assay: Cytotoxic activity, Alamar Blue assay. The settings on record: ADC3 study, read-out: Relative IC50 at 96 h (day 4). Format: cell-based. The procedure: as §1
as §2, with “log-dilution). […]” for “log-dilution).”

Setting [6] is: SK-BR-3, run 1, 96 h, ADC1 study, read-out: Relative IC50 at 96 h (day 4).
Where [7] appears, read: SK-BR-3, run 2, 96 h, ADC1 study, read-out: Relative IC50 at 96 h (day 4).
[8] abbreviates: SK-OV-3, run 1, 96 h, ADC1 study, read-out: Relative IC50 at 96 h (day 4).
Where [9] appears, read: SK-OV-3, run 2, 96 h, ADC1 study, read-out: Relative IC50 at 96 h (day 4).
The mark [10] stands for this setting: MDA-MB-231, run 1, 96 h, ADC1 study.
Setting [11] is: MDA-MB-231, run 2, 96 h, ADC1 study.

Like-named read-outs stand apart in the source and are kept apart here.

The IC50 is the concentration that gives 50% inhibition. With “AF-Arg-Lys(PEG4-Mal-trastuzumab)-Phe-OH [ADC1]”, the IC50 in assay [1] (SK-BR-3, run 1, 96 h (FIG. 59b), read-out: IC50) was determined as 1.48e-05 µM; in assay [1] (setting [6]), 1.48e-05 µM; in assay [1] (SK-BR-3, run 2, 96 h (FIG. 59b), read-out: IC50), 4.33e-05 µM; in assay [1] (setting [7]), 4.33e-05 µM; in assay [2] (SK-OV-3, run 1, 96 h (FIG. 59a), read-out: IC50), 0.0344 nM; in assay [2] (setting [8]) it was 0.0344 nM. In addition, the IC50 in assay [2] (SK-OV-3, run 2, 96 h (FIG. 59a), read-out: IC50) was found to be 0.0939 nM; in assay [2] (setting [9]), 0.0939 nM; in assay [4] (setting [10]), 0.128 nM; in assay [4] (setting [11]) it was 23.5 nM. The “affinity and specificity for ErbB2 expressing cells compared with trastuzumab” value in assay [3] is “same affinity and specificity”.
“trastuzumab: Herceptin (Trastuzumab) from Roche Pharma; humanized anti-HER2 (anti-ErbB2) monoclonal antibody [reference compound]”: the IC50 in assay [1] (setting [6]) is 0.76 µM; in assay [1] (setting [7]) it was 15500 µM; in assay [2] (setting [8]) it was roughly 793 nM; in assay [2] (setting [9]), roughly 16100 nM; in assay [5] (BT-474, run 1, 96 h) it was 0.571 nM; in assay [5] (BT-474, run 2, 96 h), 4.56 nM. Also, the IC50 was 2.14 nM in assay [4] (setting [10]); 1080 nM in assay [4] (MDA-MB-231, run 1, 96 h, ADC3 study); 10.9 nM in assay [4] (setting [11]); 686 nM in assay [4] (MDA-MB-231, run 2, 96 h, ADC3 study).
